## Antibody variant affinities, Ab-14 heavy chain, assay 1

Antigen: PDVDLGDISGINAS, a 14-residue peptide of the SARS-CoV-2 spike HR2 region.

Each scFv is VH, a (GGGGS)3 linker, VL, as in the parent Ab-14, and differs from it in the CDRs of the heavy chain only.
VH: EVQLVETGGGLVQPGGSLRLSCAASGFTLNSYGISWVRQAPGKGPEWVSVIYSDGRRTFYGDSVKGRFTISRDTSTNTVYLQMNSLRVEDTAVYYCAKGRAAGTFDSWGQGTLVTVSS
VL: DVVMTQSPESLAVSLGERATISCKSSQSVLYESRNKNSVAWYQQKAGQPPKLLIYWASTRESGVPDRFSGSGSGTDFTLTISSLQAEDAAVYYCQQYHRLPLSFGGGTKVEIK

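The parent was found by panning a naive human phage display library on the peptide. AAYL49 was designed without a model: most single CDR substitutions and a random sample of double and triple ones. In AlphaSeq, yeast of one mating type display the scFv and yeast of the other type display the target. Binding brings cells together so that they mate, and sequencing counts the barcode pairs among the diploids. A regression on co-assayed BCL2-family reference pairs converts the normalised counts of each replicate to an apparent Kd. The assay was run in three technical replicates.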

Positions count from residue 1 of the parent VH; S53A puts A in place of S. Affinities are written as log10 Kd with Kd in nM; a lower number is a better binder. A mean of the replicates is given; it leaves out those without a signal. An entry "nd" has no value in the source: the pair was not observed among the diploids in any replicate. This suggests poor binding but is not conclusive.

changes,mean log10 Kd (nM),replicates with signal,control signals
S53A T104G S107C,nd,0/3,2/9
T28A R100I T104R,1.59,3/3,2/9
Y32K R57L,5.11,1/3,4/9
T28F G103Q,3.93,3/3,4/9
L29G S53Y F105H,nd,0/3,0/9
S31M K65V A101F,1.01,3/3,2/9
S35M G99L T104W,5.65,1/3,0/9
G26T D54P Y60L,nd,0/3,0/9
Y60F S63Y R100S,4.64,1/3,2/9
Y60D G99D F105A,3.06,1/3,2/9
S31P G61A,3.12,3/3,1/9
F27I V64I G99N,nd,0/3,0/9
F27A S63P,0.87,3/3,0/9
S31M F59P Y60S,nd,0/3,0/9
S53L Y60W A101K,nd,0/3,0/9
Y52H Y60N K65G,nd,0/3,4/9
T28D R56G A101Q,0.80,3/3,0/9
N30L I34T G103W,nd,0/3,0/9
L29H G103P S107W,5.50,1/3,7/9
V50E A101D A102Y,nd,0/3,0/9
I34L F59A F105Q,1.43,3/3,2/9
F27Y R56V S63Q,2.75,3/3,2/9
S35C F105I,nd,0/3,0/9
T28M I34L A101R,nd,0/3,1/9
I51E D54P,nd,0/3,0/9
G33Y S53Y G55V,4.10,1/3,1/9
T28K F59Q T104W,2.23,3/3,0/9
R100K G103A T104C,nd,0/3,1/9
L29S S53P T58C,nd,0/3,1/9
G26H G33H R100A,3.64,1/3,0/9
S53H F59H G99Q,nd,0/3,1/9
Y52G D54W T104R,nd,0/3,2/9

Continued, with the values leading:

mean log10 Kd (nM),replicates with signal,control signals,changes
5.31,1/3,0/9,S31F Y32D D54N
nd,0/3,2/9,Y32E Y52R D106K
nd,0/3,1/9,I34T G61H A101Y
5.08,1/3,1/9,F59S G61R A101P
nd,0/3,0/9,G33V A101I S107M
nd,0/3,0/9,N30V D62C V64Y
6.55,1/3,1/9,S35I Y60F A101F
3.77,1/3,3/9,G26I R57K K65V
nd,0/3,3/9,I51F R56G
1.13,3/3,0/9,I34V V64F A101S
nd,0/3,0/9,G26V R57M T104P
3.56,3/3,1/9,R57L Y60V A101I
nd,0/3,0/9,S35E D106T
nd,0/3,2/9,G33K I51M D62W
2.51,3/3,0/9,K65D F105G D106Q
5.19,1/3,4/9,S35Y G61P S107F
nd,0/3,0/9,F59S F105H
nd,0/3,0/9,S53M G55E T104Y
4.20,2/3,4/9,R57C G61I D62S
nd,0/3,0/9,I51Y T58Y K65F
nd,0/3,0/9,Y32M D54T G61P
nd,0/3,0/9,N30Y R56I T104R
4.81,2/3,4/9,F27V R57W F105V
4.45,2/3,3/9,D54F F59R S107C
3.36,1/3,1/9,S53C G55K K65Q
nd,0/3,0/9,L29N Y32R G99S
nd,0/3,0/9,Y60N S63P
nd,0/3,1/9,R57L K65D A102I
5.67,2/3,4/9,Y60N D62T F105T
5.33,1/3,1/9,D54I G55M R100S
nd,0/3,0/9,N30Y S31G I34M
4.23,2/3,4/9,F27L G33I A102C

Extract of 9 entries:

{"changes": "Y32E Y52R D106K", "mean log10 Kd (nM)": "nd", "replicates with signal": "0/3", "control signals": "2/9"}
{"changes": "D54F F59R S107C", "mean log10 Kd (nM)": "4.45", "replicates with signal": "2/3", "control signals": "3/9"}
{"changes": "S35C F105I", "mean log10 Kd (nM)": "nd", "replicates with signal": "0/3", "control signals": "0/9"}
{"changes": "Y60N S63P", "mean log10 Kd (nM)": "nd", "replicates with signal": "0/3", "control signals": "0/9"}
{"changes": "D54I G55M R100S", "mean log10 Kd (nM)": "5.33", "replicates with signal": "1/3", "control signals": "1/9"}
{"changes": "I51E D54P", "mean log10 Kd (nM)": "nd", "replicates with signal": "0/3", "control signals": "0/9"}
{"changes": "S35Y G61P S107F", "mean log10 Kd (nM)": "5.19", "replicates with signal": "1/3", "control signals": "4/9"}
{"changes": "L29G S53Y F105H", "mean log10 Kd (nM)": "nd", "replicates with signal": "0/3", "control signals": "0/9"}
{"changes": "S53H F59H G99Q", "mean log10 Kd (nM)": "nd", "replicates with signal": "0/3", "control signals": "1/9"}

Three control strains display no target. For library AAYL49, 15% of the pairings with them gave a signal, with a median of 4.06 and one signal in twenty below 2.83, so weak values seen in few replicates may be background. The control count says in how many pairings with the empty strains this scFv gave a signal.

Data: MIT Lincoln Laboratory AlphaSeq set, Engelhart et al. 2022, doi:10.1038/s41597-022-01779-4, as distributed in FLAb.